Literature values as cited in PMC6759932.

Key:
Assay in all cases: SPR
HspB6 (Homo sapiens) = HspB6 (Homo sapiens) (UniProt O14558)
HspB2 (Homo sapiens) = HspB2 (Homo sapiens) (UniProt Q16082)
HspB8 (Homo sapiens) = HspB8 (Homo sapiens) (UniProt Q9UJY1)
HspB1 (Homo sapiens) = HspB1 (Homo sapiens) (UniProt P04792)
[1] = molecular target: HspB5 (αB-crystallin) (Homo sapiens) (UniProt P02511)

Kd (HspB6 (Homo sapiens)): 400 nM
Kd (HspB2 (Homo sapiens)): 4000 nM
Kd (HspB8 (Homo sapiens)): 4000 nM
Kd (HspB1 (Homo sapiens)): 400 nM
Kd [1]: 60 nM
Substance: α-synuclein (from UniProt P37840)
